The values that follow are results of earlier work, collected in patent US20140100537A1, “TRANSDERMAL PHARMACEUTICAL PREPARATION AND ADMINISTRATION OF TIROFIBAN” (MEDICURE INTERNATIONAL INC., priority 2009, published 2014).

For the series the following is noted: in vivo.

Take `CCCCS(=O)(=O)NC(Cc1ccc(OCCCCC2CCNCC2)cc1)C(=O)O.Cl` (stereo not shown) [tirofiban]: the biological half life result was “approximately 2 hours”.
